Reference: patent publication US9662344B2, “Carnitine retention” (The University of Nottingham, priority 2003, dated 2017)
Like-named read-outs stand apart in the source and are kept apart here.

How the values were obtained:
[1] = Example II: plasma total carnitine during L-carnitine infusion with insulin clamp; assay type: in vivo, men; details: 60 mM L-carnitine infusion
[2] = 6 h, with 5 h iv 60 mM L-carnitine
[3] = 6 h insulin infusion with 5 h iv 60 mM L-carnitine infusion

insulin
plasma TC concentration, 105 vs 5 mU·m^−2·min^−1 insulin infusion ([1]; t=240 (p<0.05), t=300 (p<0.05), t=360 (p<0.01)): significantly lower | plasma TC concentration, 105 vs 30 mU·m^−2·min^−1 insulin infusion ([1]; t=360 (p<0.05)): significantly lower | muscle total carnitine concentration ([2]; highest insulin infusion rate (105 mU·m^−2·min^−1), p<0.05): significant increase | muscle carnitine accumulation ([2]; lowest insulin infusion rate (5 mU·m^−2·min^−1)): no effect | plasma carnitine concentration, 105 vs 5 mU·m^−2·min^−1 insulin clamp [3]: significantly lower | steady-state serum insulin concentration (intravenous insulin infusion 5 mU·m^−2·min^−1, after 60 min equilibration): 10.3±0.3 mU/1 | steady-state serum insulin concentration (intravenous insulin infusion 30 mU·m^−2·min^−1, after 60 min equilibration): 47.8±1.3 mU/1 | steady-state serum insulin concentration (intravenous insulin infusion 55 mU·m^−2·min^−1, after 60 min equilibration): 85.6±2 mU/1 | steady-state serum insulin concentration (intravenous insulin infusion 105 mU·m^−2·min^−1, after 60 min equilibration): 198.6±4.8 mU/1
